Results from ChEMBL document CHEMBL3877309, “Determination of binding modes and binding constants for the complexes of 6H-pyrido[4,3-b]carbazole derivatives with DNA” (Bioorg Med Chem, 2017).

Experiments:
[1] = Binding affinity to synthetic biotin-labeled 30-mer GC-rich duplex DNA in pH 7 EDTA buffer solution in presence of 0.05 M NaCl at 25 degC by QCM sensogram analysis
[2] = Binding affinity to synthetic biotin-labeled 30-mer GC-rich duplex DNA in pH 7.8 EDTA buffer solution in presence of 0.05 M NaCl at 25 degC by QCM sensogram analysis
[3] = Ratio of Ka for synthetic biotin-labeled 30-mer GC-rich duplex DNA in pH 7 to Ka for synthetic biotin-labeled 30-mer GC-rich duplex DNA in pH 7.8

Structure (SMILES) | Ka [1] | Ka [2] | Ratio [3]
CNC(=O)NCCNC(=O)c1c2cc[n+](C)cc2c(C)c2c1[nH]c1ccc(OC)cc12 | 3.74 ×10⁵ /M | 2.55 ×10⁵ /M | 1.6
CNC(=O)NCCNC(=O)c1c2cc[n+](C)cc2c(C)c2c1[nH]c1ccccc12 | 2.9 ×10⁵ /M | 2.31 ×10⁵ /M | 1.3
COc1ccc2[nH]c3c(C(=O)NCCN)c4ccncc4c(C)c3c2c1 | 25.1 ×10⁵ /M | 3.2 ×10⁵ /M | 7.8
Cc1c2cnccc2c(C(=O)NCCN)c2[nH]c3ccccc3c12 | 22.3 ×10⁵ /M | 4.83 ×10⁵ /M | 4.6
Cc1c2c[n+](C)ccc2c(C(=O)NCCCCCN)c2[nH]c3ccccc3c12 | 45 ×10⁵ /M | 16.7 ×10⁵ /M | 2.6
Cc1c2c[n+](C)ccc2c(C(=O)NCCN)c2[nH]c3ccccc3c12 | 33.2 ×10⁵ /M | 18.2 ×10⁵ /M | 1.8
CNC(=O)NCCNC(=O)c1c2ccncc2c(C)c2c1[nH]c1ccccc12 | 1.05 ×10⁵ /M | 2.2 ×10⁵ /M | 0.5
CNC(=O)NCCCCCNC(=O)c1c2cc[n+](C)cc2c(C)c2c1[nH]c1ccccc12 | 2.34 ×10⁵ /M | 2.11 ×10⁵ /M | 1.1
CNC(=O)NCCNC(=O)c1c2ccncc2c(C)c2c1[nH]c1ccc(OC)cc12 | 2.17 ×10⁵ /M | 3.75 ×10⁵ /M | 0.6
COc1ccc2[nH]c3c(C(=O)NCCN)c4cc[n+](C)cc4c(C)c3c2c1 | 147 ×10⁵ /M | 108 ×10⁵ /M | 1.4
